Article PMC8504577, “Evaluation of a Clinically Relevant Drug–Drug Interaction Between Rosuvastatin and Clopidogrel and the Risk of Hepatotoxicity” (Frontiers in Pharmacology, 2021)

Sequences of proteins named here, by UniProt entry; tags and fusion partners are left off. A change or cut given only in a name is not applied to a line headed by its entry.
UniProt Q9UNQ0: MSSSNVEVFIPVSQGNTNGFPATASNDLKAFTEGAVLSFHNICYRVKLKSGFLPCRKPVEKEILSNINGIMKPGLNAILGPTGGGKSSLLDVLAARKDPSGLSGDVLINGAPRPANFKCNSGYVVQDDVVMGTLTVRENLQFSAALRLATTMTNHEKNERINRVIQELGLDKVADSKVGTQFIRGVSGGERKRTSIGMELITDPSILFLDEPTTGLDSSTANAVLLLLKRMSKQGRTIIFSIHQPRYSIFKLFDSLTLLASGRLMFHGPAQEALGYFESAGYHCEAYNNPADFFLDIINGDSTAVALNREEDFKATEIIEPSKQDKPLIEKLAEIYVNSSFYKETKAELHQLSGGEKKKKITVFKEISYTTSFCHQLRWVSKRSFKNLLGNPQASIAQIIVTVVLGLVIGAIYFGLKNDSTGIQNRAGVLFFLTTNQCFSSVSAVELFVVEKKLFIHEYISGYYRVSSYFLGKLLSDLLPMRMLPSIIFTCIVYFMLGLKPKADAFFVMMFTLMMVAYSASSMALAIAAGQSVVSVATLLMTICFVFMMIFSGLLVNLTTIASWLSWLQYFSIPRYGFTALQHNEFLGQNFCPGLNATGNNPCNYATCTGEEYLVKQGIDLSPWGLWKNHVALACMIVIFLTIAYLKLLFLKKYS

Molecular target: BCRP (Homo sapiens, UniProt Q9UNQ0)
Test: Inhibition of RSV transport in BCRP-expressing membrane vesicles
Format: biochemical
Parameters: purchased GenoMembrane Co., Ltd. (Yokohama, Japan) GM0008; host or cells: Sf9 insect cells
Settings: 100 μM
Description: The vesicular transport activity was determined by the 96-well rapid filtration method in BCRP- and MRP2-expressing membrane vesicles. For samples in the presence of ATP, 10 μL vesicle (final concentration, 1 mg protein/mL), 5 μL buffer A2 (replaced by 100 μM reduced glutathione for MRP2 incubations), 10 μL of varying concentrations of CP or CPC or novobiocin (BCRP inhibitor, final concentration of 100 μM), or benzbromarone (MRP2 inhibitor, final concentration of 100 μM) were pre-incubated at 37°C for 5 min. Meanwhile, 5 μL RSV (final concentration, 1 μM) and 20 μL reagent C2 were pre-incubated at 37°C for 5 min. Then, the transport was initiated by mixing them in a 50 μL reaction system and incubated for the designated time at 37°C. The transport was terminated by adding 200 μL of cold buffer B2 at 4°C. Then, the mixture was filtered using a 96-well filter plate. After washing the vesicles five times with 200 μL of cold buffer B2 at 4°C, the vesicles were lysed with 50 μL of 80% […] twice and then centrifuged at 2000 rpm/min for 2 min. Lysates were collected and then centrifuged at 12,000 rpm/min for 5 min. The supernatants were injected onto the LC-MS/MS. The same procedures were applied to AMP-containing samples except that reagent D2 was used instead of reagent C2. All experiments were performed in quadruplicate.
Statistical analysis was performed using SPSS ver. […]

SMILES: CO[C@@H]1[C@@H](OC(N)=O)[C@@H](O)[C@H](Oc2ccc3c(O)c(NC(=O)c4ccc(O)c(CC=C(C)C)c4)c(=O)oc3c2C)OC1(C)C [novobiocin]
- Inhibition of RSV uptake into BCRP vesicles (positive control): significantly inhibited
